# Data: patent US6743429B2, “Use of calcitonin gene-related peptide in the prevention and alleviation of asthma and related bronchospastic pulmonary diseases” (Sherbrooke University, priority 1999, dated 2004)
# What was measured:
# [1] = system: guinea pigs (control and OA-sensitized); assay: Substance P-induced increase in airway resistance (PIP) after intravenous CGRP; type: in vivo, guinea pig
# Procedure: Guinea pigs were anaesthetized with xylazine (20 mg/kg, i.m.) and ketamine hydrochloride (130 mg/kg, i.m.). The jugular vein and trachea were cannulated and animals were mechanically ventilated with a constant-volume rodent respirator (Havard, model 683) delivering a tidal volume of 5.5 ml/kg at a frequency of 60 cycles/min via the tracheal cannula. Airway resistance was measured by the overflow technique according to well-validated and standardized procedures. Briefly, ventilation overflow (i.e., the pulmonary insufflation pressure or PIP), was recorded at the side arm of the tracheal cannula by means of a differential pressure transducer (Gould P23 ID) connected to a Grass polygraph (model 7D). Airway responsiveness was assessed by measuring the changes in PIP following i.v. injections of the agonists. Changes in PIP, which were taken as an index of changed airway resistance, were measured and expressed in mm of mercury (mm Hg). Each agonist was injected through the jugular vein cannula in a volume of 100 μl followed by a washout with 200 μl of heparinized-saline (100 units/ml).
# Before starting the experiment, guinea pig airway responsiveness was first tested by a single i.v. administration of 25 μg/kg of acetylcholine. […] Only guinea pigs (control and OA-sensitized) showing a reasonably strong (>20 mm Hg) airway constriction to the cholinergic agonist were used in this study. Thereafter, substance P (SP) which was used as the main non-specific spasmogen, was injected intravenously every 20 minutes to induce bronchoconstriction. Care was taken to choose a dose of SP (13.5 μg/kg) so that the same extent of airway constriction could be induced in both animal groups. SP (13.5 μg/kg) was then administered repeatedly (approximately 3 times) until a reproducible constriction (control response) was obtained. After two SP-induced bronchoconstrictions of similar amplitude, CGRP (0.38-114 μg/kg) was administered 5 minutes before a further challenge with SP and the SP challenge was then repeated. The resulting constriction was compared with the control response i.e. the mean of the two pre-inhibition bronchoconstrictions.
# sheep = assay: Haemodynamic parameters and baseline SRL after inhaled administration in sheep; type: in vivo
# Excerpt: Eighteen sheep with a mean weight of 35 kg (range: 24 to 52 kg) were used for this study. […] Ten of these animals were defined as non-allergic and 8 as allergic, based on the absence or presence of both early and late airway responses after a standard inhalation challenge with Ascaris suum antigen. All sheep were allowed a 4-week recovery period after the allergen challenge before experimentation began. For each of the procedures hereafter presented, the unsedated animals were restrained on a standard shopping cart in the prone position and their heads were immobilized. After topical anesthesia of the nasal passages with 2% lidocaine solution, a balloon catheter was advanced through one nostril into the lower esophagus. Subsequently, a cuffed nasotracheal tube (7 to 8 mm in diameter) was placed with the guidance of a flexible fiberoptic bronchoscope.
# The techniques used for investigating airway mechanics were again well-validated and standardized procedures (as is usually the case with large mammals). […] Lateral pressure in the trachea was measured with a sidehole catheter (inner diameter=2.5 mm) advanced through and positioned distal to the tip of the endotracheal tube. […] The transpulmonary pressure and flow signals were recorded on a Hewlett Packard (model 7754B, Mass. USA) multichannel recorder, which was linked to a PC 386 Personal Computer (IBM Equipment, Montreal, Quebec) for online calculation of mean RL by dividing the change in transpulmonary pressure by the change in flow at mid-tidal volume (Vt) (obtained by digital integration). […] Immediately after measuring RL, thoracic gas volume (Vtg) was measured in a constant-volume body plethysmograph to obtain specific lung resistance (SRL=RL×Vtg) in L×cm H2O/L/sec.
# All aerosols were generated using a disposable medical nebulizer (Raindrop, Puritan-Bennett, Lenexa, Kan.) which produced an aerosol with a mass median aerodynamic diameter of 3.6 mm (geometric S.D. 1.9), as determined by a seven stage Andersen cascade impactor (Andersen, Inc. Atlanta, Ga.). […]
# guinea pig trachea = conditions: cited from earlier work
# [2] = inhaled increasing doses (CGRP 0.1, 0.25, 0.5 and 1.0 mg/2 ml)
substance,measurement,setting,value
calcitonin gene-related peptide [CGRP],effect on baseline airway resistance,"[1]; CGRP 3.8 mg/kg i.v., by itself",did not affect
same,reduction in capability to exert bronchoprotective action (OA-sensitized versus control),[1]; CGRP 114 mg/kg i.v.,more than 40%
same,inhibition of SP-induced airway constriction,"[1]; OA-sensitized animals, CGRP 114 mg/kg i.v.",36%
same,prevention of SP-induced increase in airway constriction,"[1]; OA-sensitized guinea pigs, CGRP 3.8 mg/kg i.v.",failed to significantly prevent
same,inhibition of SP-induced bronchoconstriction,"[1]; control animals, highest dose used (0.38 to 114 mg/kg i.v.), 5 minutes before SP",60%
same,effect on response to SP (13.5 mg/kg),"[1]; non-sensitized animals, CGRP 3.8 mg/kg i.v.",potently inhibited
same,"specific lung resistance (SRL), baseline","sheep; inhaled CGRP 0.1 to 1.0 mg/2 ml, measured for six hours, no challenge",without any significant effect
same,heart rate,sheep; [2],without any significant effect
same,mean arterial blood pressure (MAP),sheep; [2],without any significant effect
same,"contractile response, % of the maximum induced with 1.5×10^−5 M of methacholine",guinea pig trachea; reference (8),30%
same,"contractile response, % of the capsaicin (10^−5 M) maximum",guinea pig trachea; reference (9),14%
same,"contractile response, % of 50 mM KCI-induced contraction",guinea pig trachea; reference (19),8%
